Values quoted from earlier work, collected in publication PMC4181337 (Metallomics : integrated biometal science, 2013).

Settings: daily administration 25 to 125 mg in humans; cited from earlier work

ammonium vanadyl tartrate
absorption: 1.1%
